Results reported in US11059815B2, “Synthesis of small molecule histone deacetylase 6 degraders, compounds formed thereby, and pharmaceutical compositions containing them” (Wisconsin Alumni Research Foundation, priority 2018, dated 2021).

Chains of the proteins cited; added tags and fusions are not shown.
UniProt Q9UBN7, whole entry: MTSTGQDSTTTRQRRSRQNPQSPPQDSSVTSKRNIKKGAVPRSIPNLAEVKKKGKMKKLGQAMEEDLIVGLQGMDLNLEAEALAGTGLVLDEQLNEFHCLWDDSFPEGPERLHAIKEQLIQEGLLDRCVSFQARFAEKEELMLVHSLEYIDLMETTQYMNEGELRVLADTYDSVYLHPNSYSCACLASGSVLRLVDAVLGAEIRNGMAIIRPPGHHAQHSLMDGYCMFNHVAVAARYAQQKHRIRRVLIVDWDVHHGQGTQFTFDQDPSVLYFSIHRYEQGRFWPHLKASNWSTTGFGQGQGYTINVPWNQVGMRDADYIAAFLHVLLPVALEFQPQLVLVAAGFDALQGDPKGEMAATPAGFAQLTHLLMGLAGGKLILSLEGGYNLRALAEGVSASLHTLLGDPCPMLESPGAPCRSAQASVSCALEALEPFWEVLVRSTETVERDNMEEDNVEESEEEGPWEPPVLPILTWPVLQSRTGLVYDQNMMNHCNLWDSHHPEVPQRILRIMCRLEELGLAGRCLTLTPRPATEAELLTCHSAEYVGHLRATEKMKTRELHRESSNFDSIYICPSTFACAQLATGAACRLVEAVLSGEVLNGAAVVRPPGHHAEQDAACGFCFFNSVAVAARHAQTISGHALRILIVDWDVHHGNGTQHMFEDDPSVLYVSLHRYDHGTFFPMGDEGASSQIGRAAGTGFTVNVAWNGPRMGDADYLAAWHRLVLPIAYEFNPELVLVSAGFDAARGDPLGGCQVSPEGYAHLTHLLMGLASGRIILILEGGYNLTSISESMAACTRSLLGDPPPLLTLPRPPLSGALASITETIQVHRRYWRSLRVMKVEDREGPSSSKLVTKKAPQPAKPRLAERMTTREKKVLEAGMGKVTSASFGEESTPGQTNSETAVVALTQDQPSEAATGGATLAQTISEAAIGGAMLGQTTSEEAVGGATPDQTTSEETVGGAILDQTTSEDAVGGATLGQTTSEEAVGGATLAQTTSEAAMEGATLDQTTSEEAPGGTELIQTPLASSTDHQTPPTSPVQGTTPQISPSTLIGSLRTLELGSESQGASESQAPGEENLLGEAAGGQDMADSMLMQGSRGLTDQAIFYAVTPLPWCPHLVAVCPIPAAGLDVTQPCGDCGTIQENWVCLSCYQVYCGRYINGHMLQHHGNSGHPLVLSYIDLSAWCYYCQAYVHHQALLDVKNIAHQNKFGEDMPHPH

Target: HDAC6 (Homo sapiens, UniProt Q9UBN7)
Test: Immunoblot of HDAC degradation in MCF-7 cells
Settings: 12 h
Description: FIG. 3A: Immunoblot of whole cell lysate after MCF-7 cells were treated with 5 μM of 9a-9d for 12 h.
FIG. 3B: Immunoblot of whole cell lysate after MCF-7 cells were treated with 9c at various concentrations (5 nM to 10 μM) for 12 h.
FIG. 3C: Band intensity of the immunoblot shown in FIG. 3B calculated using “Image J” software (a public domain, Java-based image processing program developed at the National Institutes of Health and only available online at https://imagej.nih.gov/ij/) and curve-fit and graphed using GraphPad's “Prism”-brand software (GraphPad Software, Inc. La Jolla, Calif.).
The activity and selectivity of HDAC degraders 9a-9d was tested in cell-based assays against different HDACs. […] The degradation of HDAC6 induced by compound 9c led to the increase of acetylated tubulin as expected from the initial results. The concentration at which half-maximal degradation was achieved (DC50) and the maximum percentage of degradation (Dmax) were 34 nM and 70.5% respectively. […] Douglass, E. F.; Miller, C. […]
When the cells reached 90% confluence, they were harvested and plated 1×10^6 cells per well in 6-well plate. […] Protein concentration was measured by using the Pierce BCA protein assay (Thermo Fisher Scientific). […] The Immunoblot was generated by ChemiDoc MP Imaging Systems (Bio-Rad) and analyzed by Image J software (only available for download online at https://imagej.net/Downloads). […]

Compound: O=C(CCCCCCC(=O)N/N=C/c1ccc(OCCOCCOCCn2cc(CNc3cccc4c3C(=O)N(C3CCC(=O)NC3=O)C4=O)nn2)cc1)NO (centres unmarked) [Compound 1]
- concentration of maximal degradation effect (hook effect above): around 300 nM
- Dmax (maximum percentage of degradation) (immunoblot band intensity): 70.5%
